Target: C-X-C chemokine receptor type 4 (Homo sapiens, UniProt P61073)
Assay: Displacement of [125I]SDF1 from human CXCR4 expressed in CHO cells
Type: cell-based

Protein sequences, listed by entry. Tags and fused reporters are not part of them.
UniProt P61073, whole entry: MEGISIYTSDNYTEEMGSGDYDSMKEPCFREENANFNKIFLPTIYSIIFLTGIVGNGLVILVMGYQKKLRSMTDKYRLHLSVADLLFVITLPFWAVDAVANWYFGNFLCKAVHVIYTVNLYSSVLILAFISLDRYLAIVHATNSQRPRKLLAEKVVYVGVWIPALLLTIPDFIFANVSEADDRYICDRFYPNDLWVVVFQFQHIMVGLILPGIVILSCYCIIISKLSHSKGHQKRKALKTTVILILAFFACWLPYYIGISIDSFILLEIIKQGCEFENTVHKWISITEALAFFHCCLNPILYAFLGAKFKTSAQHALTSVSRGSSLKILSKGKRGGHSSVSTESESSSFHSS

`N=C(N)NCCC[C@@H]1NC(=O)[C@H](CCCNC(=N)N)NC(=O)[C@@H](Cc2ccc(O)cc2)NC(=O)CNC(=O)[C@H](Cc2ccc3ccccc3c2)NC1=O` gave an IC50 of 35 nM.
